Among the data in patent publication US9434725B2, “5-azaindazole compounds and methods of use” (priority 2012, dated 2016) are Ki and IC50 values, retold here.

Chains of the proteins cited; added tags and fusions are not shown.
UniProt P11309, whole entry: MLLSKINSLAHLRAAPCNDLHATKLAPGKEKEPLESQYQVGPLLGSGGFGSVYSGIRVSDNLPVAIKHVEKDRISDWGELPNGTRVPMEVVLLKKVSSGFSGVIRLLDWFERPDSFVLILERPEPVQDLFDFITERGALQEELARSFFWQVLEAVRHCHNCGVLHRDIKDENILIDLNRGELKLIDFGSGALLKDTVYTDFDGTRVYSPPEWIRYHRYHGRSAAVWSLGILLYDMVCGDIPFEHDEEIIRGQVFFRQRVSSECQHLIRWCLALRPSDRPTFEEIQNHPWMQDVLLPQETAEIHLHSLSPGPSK

Where two headings read alike, the source gives them in different places.

One test deals with PIM3 (Homo sapiens (Human), UniProt Q86V86). Nature of the test: Pim kinase binding activity, Caliper LC3000 microfluidic peptide phosphorylation assay, PIM3. As to conditions: 10 μM ATP, 90 min, room temperature; read-out: PIM3 LC3K (KI). The class given is biochemical. Here is the method: (§1) A fluorescent-labeled Pim-specific peptide substrate, was custom synthesized by American Peptide Company (Sunnyvale, Calif.). Reaction Buffer contained 10 mM HEPES, pH 7.2, 10 mM MgCl2, 0.01% Tween 20, 2 mM DTT. Termination Buffer contained 190 mM HEPES, pH 7.2, 0.015% Brij-35, 0.2% Coating Reagent 3 (Caliper Life Sciences, Hopkinton, Mass.), 20 mM EDTA. Separation Buffer contained 100 mM HEPES, pH 7.2, 0.015% Brij-35, 0.1% Coating Reagent 3, 1:200 Coating Reagent 8 (Caliper Life Sciences, Hopkinton, Mass.), 10 mM EDTA and 5% DMSO.
(§2) PIM reactions were carried out in a final volume of 10 μL per well in a 384-well plate. […] After 90 minutes of incubation at room temperature, the phosphorylation reaction was stopped by the addition of 10 μL Termination Buffer. The product and substrate in each independent reaction were separated on a 12-sipper microfluidic chip (Caliper Life Sciences, Hopkinton, Mass.) run on a Caliper LC3000® (Caliper Life Sciences, Hopkinton, Mass.). The separation of product and substrate was optimized by choosing voltages and pressure using Caliper's Optimizer software (Hopkinton, Mass.). The separation conditions used a downstream voltage of −500V, an upstream voltage of −2150V, and a screening pressure of −1.2 psi. […] Substrate conversion was calculated from the electropherogram using HTS Well Analyzer software (Caliper Life Sciences, Hopkinton, Mass.). Ki values for the test compound were calculated.

For the next test, the system named is BaF3 PIM1 cells. The test is described as follows: In vitro cell proliferation potency assay (Cell Titer Glo), BaF3 PIM1 cells. The class given is cell-based, murine. As to conditions: read-out: Prolif BaF3_PIM 1 (IC50). The method, then: BaF3 parental line was obtained from the DSMZ repository. BaF3 lines transfected with PIM1 or PIM2 were generated. Mouse IL-3 was purchased from R&D Systems. G418 was purchased from Clontech. Media for BaF3 parental line contained RPMI, 10% FBS, 2 mM L-Glutamine, 2 ng/mL mIL-3. Media for BaF3 PIM1 & 2 lines contained RPMI, 10% FBS, 2 mM L-Glutamine, […]. Media for MM1.S (multiple myeloma cells) line contained RPMI, 10% FBS, 2 mM L-Glutamine.
BaF3, a murine interleukin-3 dependent pro-B cell line, parental cells, BaF3 PIM1 cells, BaF3 PIM2 cells, and MM1.S (multiple myeloma) cells were seeded at 2 k/well, 5 k/well, 5 k/well, and 10 k/well respectively, in a 384-well plate, at 45 μL/well. Test compound was added at 5 μL/well. BaF3 cells (parental and transfected) were incubated overnight, while MM1.S cells were incubated for 72 hours at 37° C., 5% CO2. CELL TITER GLO® Reagent (Promega) was added at 50 μL/well, the plates were incubated for 30 minutes, and their luminescence read on an HT Analyst. IC50/EC50 values for the test compound were calculated.

The target of another test is PIM1 (Homo sapiens (Human), UniProt P11309). It is filed as biochemical. The following applies: 10 μM ATP, 90 min, room temperature; read-out: PIM1 LC3K (KI). Here is the method:
as §1, §2

Where [1] appears, read: Mus musculus, BaF3, BaF3 cells transfected with PIM1, incubated overnight.

For the compound `Cc1cncc(-c2cc3c(cn2)cnn3-c2cccc(C3CCCC(N)C3)n2)n1` (single isomer, unassigned) [Compound 211, 3-[6-[6-(6-methylpyrazin-2-yl)pyrazolo[4,3-c]pyridin-1-yl]-2-pyridyl]cyclohexanamine], at PIM3, the Ki is 0.074 nM. The IC50 in the test on BaF3 PIM1 cells (BaF3 cells transfected with PIM1, incubated overnight) came out at 459 nM. As to `Cc1cncc(-c2cc3c(cn2)cnn3-c2cccc(C3CNCCC3(F)F)n2)n1` (single isomer, unassigned) [Compound 272], at PIM3, the Ki is 0.0235 nM. In the case of `Cn1cc(-c2cc3c(cn2)cnn3-c2cccc(N3CCNCC3)n2)cn1` [Compound 102, 6-(1-methyl-1H-pyrazol-4-yl)-1-(6-(piperazin-1-yl)pyridin-2-yl)-1H-pyrazolo[4,3-c]pyridine], the Ki at PIM3 worked out at 0.291 nM. `CCc1cncc(-c2cc3c(cn2)cnn3-c2cccc(N3CCNCC(O)C3)n2)c1` (centres unmarked) [Compound 106, 1-(6-(6-(5-ethylpyridin-3-yl)-1H-pyrazolo[4,3-c]pyridin-1-yl)pyridin-2-yl)-1,4-diazepan-6-ol]: the results for the Ki on PIM1 and at PIM3 were 0.104 nM and 0.159 nM, respectively. The IC50 with BaF3 PIM1 cells (setting [1]) came to 1200 nM. Consider `Cc1cncc(-c2cc3c(cn2)cnn3-c2cccc(N3CCNC(C)CC3)n2)n1` (centres unmarked) [Compound 184, 1-[6-(5-methyl-1 4-diazepan-1-yl)-2-pyridyl]-6-(6-methylpyrazin-2-yl)pyrazolo[4,3-c]pyridine], for which, on PIM1, the Ki was 0.164 nM. Also, the IC50 in the test on BaF3 PIM1 cells (setting [1]) was 1100 nM. Take `Cc1cncc(-c2cc3c(cn2)cnn3-c2cccc(N3CCNC[C@H]3C)n2)n1` [Compound 191, 1-[6-[(2R)-2-methylpiperazin-1-yl]-2-pyridyl]-6-(6-methylpyrazin-2-yl)pyrazolo[4,3-c]pyridine]: the Ki on PIM1 is 0.156 nM. The IC50 with BaF3 PIM1 cells (setting [1]) is 919 nM. The corresponding values for `Cc1cncc(-c2cc3c(cn2)cnn3-c2cccc(N3CCCC(N)C3C)n2)n1` (centres unmarked) [Compound 195, 2-methyl-1-[6-[6-(6-methylpyrazin-2-yl)pyrazolo[4,3-c]pyridin-1-yl]-2-pyridyl]piperidin-3-amine] are 0.065 nM and 1000 nM. For `Cc1nc(-c2cc3c(cn2)cnn3-c2cccc(N3CCCNCC3)n2)cnc1N` [Compound 208, 5-(1-(6-(1,4-diazepan-1-yl)pyridin-2-yl)-1H-pyrazolo[4,3-c]pyridin-6-yl)-3-methylpyrazin-2-amine], in that order: 0.012 nM and 173 nM. The corresponding values for `Cc1cncc(-c2cc3c(cn2)cnn3-c2ccc(F)c(N3CCC[C@H](N)C3)n2)n1` [Compound 215, (S)-1-(3-fluoro-6-(6-(6-methylpyrazin-2-yl)-1H-pyrazolo[4,3-c]pyridin-1-yl)pyridin-2-yl)piperidin-3-amine] are 0.048 nM and 1200 nM. Consider `Cc1cncc(-c2cc3c(cn2)cnn3-c2ccc(C(F)(F)F)c(N3CCC[C@H](N)C3)n2)n1` [Compound 220, (S)-1-(6-(6-(6-methylpyrazin-2-yl)-1H-pyrazolo[4,3-c]pyridin-1-yl)-3-(trifluoromethyl)pyridin-2-yl)piperidin-3-amine], for which the Ki at PIM1 stood at 0.034 nM. For the same compound, the IC50 in the test on BaF3 PIM1 cells (setting [1]) was determined as 1200 nM. The corresponding values for `Cn1cc(-c2cc3c(cn2)cnn3-c2cccc(N3CCCNCC3)n2)cn1` [Compound 224, 1-(6-(1,4-Diazepan-1-yl)pyridin-2-yl)-6-(1-methyl-1H-pyrazol-4-yl)-1H-pyrazolo[4,3-c]pyridine] are 0.154 nM and 1500 nM. For `Cc1cncc(-c2cc3c(cn2)cnn3-c2cccc(N3CCC[C@H](N)C3=O)n2)n1` [Compound 225, (3S)-3-amino-1-[6-[6-(6-methylpyrazin-2-yl)pyrazolo[4,3-c]pyridin-1-yl]-2-pyridyl]piperidin-2-one], in that order: 0.817 nM and 840 nM. For the compound `Cc1cncc(-c2cc3c(cn2)cnn3-c2cccc(C3CNCCC3(F)F)n2)n1` (centres unmarked) [Compound 259, 1-[6-(4,4-difluoro-3-piperidyl)-2-pyridyl]-6-(6-methylpyrazin-2-yl)pyrazolo[4,3-c]pyridine], the Ki at PIM3 was 0.025 nM. On the same count and under the same terms, the figure for `Cn1cc(-c2cc3c(cn2)cnn3-c2cccc(N3CC4(CNC4)C3)n2)cn1` [Compound 268, 1-(6-(2,6-Diazaspiro[3.3]heptan-2-yl)pyridin-2-yl)-6-(1-methyl-1H-pyrazol-4-yl)-1H-pyrazolo[4,3-c]pyridine] is 5.65 nM. For the compound `OCCNc1cncc(-c2cc3c(cn2)cnn3-c2cccc(N3CCNCC3)n2)n1` [Compound 282, 2-[[6-[1-(6-piperazin-1-yl-2-pyridyl)pyrazolo[4,3-c]pyridin-6-yl]pyrazin-2-yl]amino]ethanol], at PIM1, the Ki was found to be 0.026 nM. For the same compound, the half-maximal inhibitory concentration (IC50) in the test with BaF3 PIM1 cells (setting [1]) was 170 nM.

`O[C@H]1CCC[C@@H]1Nc1cncc(-c2cc3c(cn2)cnn3-c2cccc(N3CCNCC3)n2)n1` [Compound 283]: the Ki at PIM1 was found to be 0.148 nM. Besides, the IC50 in the test on BaF3 PIM1 cells (setting [1]) amounted to 1000 nM. Regarding `CCNc1cncc(-c2cc3c(cn2)cnn3-c2cccc(N3CCNCC3)n2)n1` [Compound 285, N-ethyl-6-(1-(6-(piperazin-1-yl)pyridin-2-yl)-1H-pyrazolo[4,3-c]pyridin-6-yl)pyrazin-2-amine], the Ki at PIM3 stood at 0.09 nM. Turning to `Cc1cncc(-c2cc3c(cn2)cnn3-c2ccc(=O)n([C@H]3CCCNC3)n2)n1` [Compound 289, (S)-6-(6-(6-methylpyrazin-2-yl)-1H-pyrazolo[4,3-c]pyridin-1-yl)-2-(piperidin-3-yl)pyridazin-3(2H)-one], the Ki is 31.3 nM at PIM1 and 30 nM on PIM3.

In the case of `Cc1cncc(-c2cc3c(cn2)cnn3-c2cccc(C3(F)CCCNC3)n2)n1` (centres unmarked) [Compound 294, 1-(6-(3-fluoropiperidin-3-yl)pyridin-2-yl)-6-(6-methylpyrazin-2-yl)-1H-pyrazolo[4,3-c]pyridine], at PIM3, the inhibition constant Ki turned out to be 0.209 nM.

Regarding `CNc1cccc(-n2ncc3cnc(-c4cncc(C)n4)cc32)n1` [Compound 297, N-methyl-6-(6-(6-methylpyrazin-2-yl)-1H-pyrazolo[4,3-c]pyridin-1-yl)pyridin-2-amine], the Ki on PIM1 came to 0.43 nM. Besides, the IC50 with BaF3 PIM1 cells (setting [1]) is 1200 nM. For the compound `OCC#Cc1cncc(-c2cc3c(cn2)cnn3-c2cccc(N3CCNCC3)n2)n1` [Compound 300, 3-(6-(1-(6-(piperazin-1-yl)pyridin-2-yl)-1H-pyrazolo[4,3-c]pyridin-6-yl)pyrazin-2-yl)prop-2-yn-1-ol], the Ki at PIM1 was 0.089 nM. The IC50 in the test with BaF3 PIM1 cells (setting [1]) turned out to be 1300 nM. The corresponding values for `Cc1cncc(-c2cc3c(cn2)cnn3-c2cccc(C(=O)N3CCC[C@H](N)C3)n2)n1` [Compound 302, (S)-(3-aminopiperidin-1-yl)(6-(6-(6-methylpyrazin-2-yl)-1H-pyrazolo[4,3-c]pyridin-1-yl)pyridin-2-yl)methanone] are 10.3 nM and 6100 nM. With `Cc1cncc(-c2cc3c(cn2)cnn3-c2cccc(C(=O)N3CCC[C@@H](N)C3)n2)n1` [Compound 303, (R)-(3-aminopiperidin-1-yl)(6-(6-(6-methylpyrazin-2-yl)-1H-pyrazolo[4,3-c]pyridin-1-yl)pyridin-2-yl)methanone], the Ki on PIM1 was 11.8 nM. Also, the IC50 with BaF3 PIM1 cells (setting [1]) turned out to be 6600 nM. In the case of `c1ccc(-n2ncc3cnc(-c4cncc(NC5CNC5)n4)cc32)nc1` [Compound 308, N-(azetidin-3-yl)-6-(1-(pyridin-2-yl)-1H-pyrazolo[4,3-c]pyridin-6-yl)pyrazin-2-amine], the Ki on PIM1 amounted to 0.279 nM. The IC50 in the test with BaF3 PIM1 cells (setting [1]) amounted to 1300 nM. Regarding `Cc1cncc(-c2cc3c(cnn3-c3cccc(N4CCNCC4)n3)nn2)n1` [Compound 313, 6-(6-methylpyrazin-2-yl)-1-(6-(piperazin-1-yl)pyridin-2-yl)-1H-pyrazolo[4,3-c]pyridazine], on PIM1, the inhibitory constant (Ki) was found to be 0.073 nM. Besides, in the test on BaF3 PIM1 cells (setting [1]), the IC50 was 236 nM. For `CC#Cc1cncc(-c2cc3c(cn2)cnn3-c2cccc(N3CCNCC3)n2)n1` [Compound 317, 1-(6-(piperazin-1-yl)pyridin-2-yl)-6-(6-(prop-1-ynyl)pyrazin-2-yl)-1H-pyrazolo[4,3-c]pyridine], in that order: 0.068 nM and 1000 nM.
